The target of this experiment is mouse Keap1-DC (aa321-609, SEQ ID No. 24) (Mus musculus, UniProt Q9Z2X8). Description: isothermal titration calorimetry, binding to Keap1-DC. Particulars: 25° C. The protocol: Binding isotherms were obtained using isothermal titration calorimetry, for the interaction of mouse Keap1-DC (aa321-609, SEQ ID No. 24) with KIR in mouse non-phosphorylated p62 (SEQ ID No. 21), KIR in mouse phosphorylated p62 (SEQ ID No. 21), or an ETGE motif of mouse Nrf2 (SEQ ID No. 26) (FIG. 2).
First, isothermal titration calorimetry was performed using MicroCal iTC200 System (GE Healthcare) at 25° C. 2.5 μl of 0.1 mM solution of non-phosphorylated KIR (^348[…]^356, SEQ ID No. 21) was injected from a rotating syringe (1000 rpm) into 200 μl of 0.1 mM solution of Keap1-DC sixteen times at an interval of 3 minutes. 1.3 μl of 0.6 mM phosphorylated KIR (^348VDP(pS)TGELQ^356) solution was injected from a rotating syringe (1000 rpm) into 200 μl of 0.06 mM Keap1-DC solution thirty times at an interval of 2 minutes. 1 μl of 0.4 mM solution of Nrf2-ETGE motif (^76[…]^84, SEQ ID No. 26) were injected from a rotating syringe (1000 rpm) into 200 μl of 0.04 mM of Keap1-DC (SEQ ID No. 24) forty times at an interval of 2 minutes. The binding data were analyzed using Origin 7 software (GE healthcare).
On the technique in general: Isothermal titration calorimetry measures the heat released or taken up as one component is titrated into another.

Amino acid sequences for entries named in this document (tags omitted). A change or cut given only in a name is not applied to a line headed by its entry. Residues count along the entry.
UniProt Q9Z2X8, 321-609: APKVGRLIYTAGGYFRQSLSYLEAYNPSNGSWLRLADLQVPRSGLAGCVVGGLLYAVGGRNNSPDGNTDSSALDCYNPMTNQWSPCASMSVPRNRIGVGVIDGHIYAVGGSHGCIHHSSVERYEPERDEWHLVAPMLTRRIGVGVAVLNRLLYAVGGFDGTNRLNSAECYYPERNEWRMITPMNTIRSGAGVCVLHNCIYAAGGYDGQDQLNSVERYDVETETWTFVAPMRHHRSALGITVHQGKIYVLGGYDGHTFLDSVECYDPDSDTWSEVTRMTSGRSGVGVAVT

One substance from patent US9632092B2, “Reagent for diagnosing tumor, pharmaceutical composition, and screening method” (Tokyo Metropolitan Institute of Medical Science, priority 2012, dated 2017) can be followed below.

For “Nrf2-ETGE: ETGE motif peptide of mouse Nrf2, 76LDEETGEFL84, SEQ ID No. 26 [reference compound]”, the “Binding constant (Ka) to Keap1-DC” value is “(6.83±2.16)×10^6 M^−1”.
